Three compounds from ChEMBL document CHEMBL4257577, “Pyridinium Oximes with Ortho-Positioned Chlorine Moiety Exhibit Improved Physicochemical Properties and Efficient Reactivation of Human Acetylcholinesterase Inhibited by Several Nerve Agents” (2018) can be followed below.

By UniProt entry, the sequences of proteins in these tests, tags left out. Where a name states a change or a piece, a line headed by the entry shows the natural chain unless it says otherwise.
UniProt P06276, whole entry, looked up: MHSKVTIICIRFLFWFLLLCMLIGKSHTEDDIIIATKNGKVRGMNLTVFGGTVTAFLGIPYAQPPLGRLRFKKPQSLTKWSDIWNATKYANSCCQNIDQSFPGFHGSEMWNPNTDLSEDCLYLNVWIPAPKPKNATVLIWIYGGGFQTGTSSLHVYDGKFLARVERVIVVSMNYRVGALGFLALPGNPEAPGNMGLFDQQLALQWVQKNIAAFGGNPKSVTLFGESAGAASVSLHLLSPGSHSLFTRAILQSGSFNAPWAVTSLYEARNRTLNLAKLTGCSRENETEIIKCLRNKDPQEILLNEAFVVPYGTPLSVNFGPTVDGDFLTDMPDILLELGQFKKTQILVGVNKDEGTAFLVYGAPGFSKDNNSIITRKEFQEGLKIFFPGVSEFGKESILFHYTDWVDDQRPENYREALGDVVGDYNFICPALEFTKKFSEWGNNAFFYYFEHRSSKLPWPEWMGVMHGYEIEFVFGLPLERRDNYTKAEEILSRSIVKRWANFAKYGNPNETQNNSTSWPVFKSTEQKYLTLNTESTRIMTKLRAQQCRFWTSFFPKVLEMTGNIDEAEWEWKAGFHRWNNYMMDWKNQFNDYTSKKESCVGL
UniProt P22303: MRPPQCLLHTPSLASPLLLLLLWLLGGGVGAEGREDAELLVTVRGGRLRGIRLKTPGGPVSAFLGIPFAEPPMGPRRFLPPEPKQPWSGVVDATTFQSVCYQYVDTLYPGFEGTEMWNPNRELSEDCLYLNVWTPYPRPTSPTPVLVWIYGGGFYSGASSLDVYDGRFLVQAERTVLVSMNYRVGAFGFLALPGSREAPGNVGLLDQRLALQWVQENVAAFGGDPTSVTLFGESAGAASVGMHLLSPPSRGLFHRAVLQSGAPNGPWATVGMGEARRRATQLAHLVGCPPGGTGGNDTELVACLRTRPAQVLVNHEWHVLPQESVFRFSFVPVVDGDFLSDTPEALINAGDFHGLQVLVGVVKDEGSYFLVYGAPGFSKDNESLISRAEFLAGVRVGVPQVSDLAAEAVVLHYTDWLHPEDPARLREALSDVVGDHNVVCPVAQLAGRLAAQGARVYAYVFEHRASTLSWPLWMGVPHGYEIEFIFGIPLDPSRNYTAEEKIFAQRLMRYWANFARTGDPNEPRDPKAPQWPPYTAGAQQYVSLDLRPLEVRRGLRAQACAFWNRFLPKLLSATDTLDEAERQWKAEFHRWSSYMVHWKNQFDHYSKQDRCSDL

The source made the active and inactive calls. The calls are words filed in the database; no cut-off is given here.

Test [1] addresses T1, Cholinesterases; ACHE & BCHE (Homo sapiens) (UniProt P06276+P22303). The test is described as follows: Selectivity ratio of Ki for human plasma BChE to Ki for human erythrocytic AChE.
The target of test [2] is Acetylcholinesterase (Homo sapiens) (UniProt P22303). The test is described as follows: Reactivation of sarin-inhibited human recombinant AChE using acetylthiocholine iodide as substrate by Ellman spectrophotometric method relative to control. Background: In Ellman's method for cholinesterases, released thiocholine reacts with DTNB.
Test [3] has the same target. The test is described as follows: Reactivation of tabun-inhibited human erythrocytic AChE using acetylthiocholine iodide as substrate by Ellman spectrophotometric method relative to control.
Test [4] has the same target. The test is described as follows: Reactivation of cyclosarin-inhibited human recombinant AChE using acetylthiocholine iodide as substrate by Ellman spectrophotometric method relative to control.
Test [5] has the same target. In words: Reactivation of VX-inhibited human recombinant AChE at 1 mM using acetylthiocholine iodide as substrate by Ellman spectrophotometric method relative to control.
Test [6] has the same target. In words: Reactivation of VX-inhibited human recombinant AChE using acetylthiocholine iodide as substrate assessed as maximal first-order reactivation rate by Ellman spectrophotometric method.
Test [7] has the same target. In words: Reactivation of VX-inhibited human recombinant AChE using acetylthiocholine iodide as substrate assessed as overall second-order reactivation rate by Ellman spectrophotometric method.
The target is the same in test [8]. In words: Reactivation of sarin-inhibited human recombinant AChE using acetylthiocholine iodide as substrate assessed as maximal first-order reactivation rate by Ellman spectrophotometric method.
Test [9] shares this target. The test is described as follows: Reactivation of sarin-inhibited human recombinant AChE using acetylthiocholine iodide as substrate assessed as overall second-order reactivation rate by Ellman spectrophotometric method.
Test [10] has the same target. In words: Reactivation of tabun-inhibited human erythrocytic AChE using acetylthiocholine iodide as substrate assessed as maximal first-order reactivation rate by Ellman spectrophotometric method.
The target is the same in test [11]. The test is described as follows: Reactivation of tabun-inhibited human erythrocytic AChE using acetylthiocholine iodide as substrate assessed as overall second-order reactivation rate by Ellman spectrophotometric method.
Test [12] shares this target. In words: Reactivation of cyclosarin-inhibited human recombinant AChE using acetylthiocholine iodide as substrate assessed as maximal first-order reactivation rate by Ellman spectrophotometric method.
The target is the same in test [13]. In words: Reactivation of cyclosarin-inhibited human recombinant AChE using acetylthiocholine iodide as substrate assessed as overall second-order reactivation rate by Ellman spectrophotometric method.
The target is the same in test [14]. In words: Reactivation of sarin-inhibited human recombinant AChE using acetylthiocholine iodide as substrate assessed as time required for maximal percentage of reactivation by Ellman spectrophotometric method.
Test [15] shares this target. The test is described as follows: Reactivation of VX-inhibited human recombinant AChE using acetylthiocholine iodide as substrate assessed as dissociation constant of conjugated enzyme-oxime complex by Ellman spectrophotometric method.
The target is the same in test [16]. The test is described as follows: Reactivation of tabun-inhibited human erythrocytic AChE using acetylthiocholine iodide as substrate assessed as time required for maximal percentage of reactivation by Ellman spectrophotometric method.
Test [17] shares this target. In words: Reactivation of sarin-inhibited human recombinant AChE using acetylthiocholine iodide as substrate assessed as dissociation constant of conjugated enzyme-oxime complex by Ellman spectrophotometric method.
Test [18] has the same target. The test is described as follows: Reactivation of cyclosarin-inhibited human recombinant AChE using acetylthiocholine iodide as substrate assessed as time required for maximal percentage of reactivation by Ellman spectrophotometric method.
Test [19] shares this target. The test is described as follows: Reactivation of tabun-inhibited human erythrocytic AChE using acetylthiocholine iodide as substrate assessed as dissociation constant of conjugated enzyme-oxime complex by Ellman spectrophotometric method.
Test [20] shares this target. The test is described as follows: Reactivation of VX-inhibited human recombinant AChE using acetylthiocholine iodide as substrate assessed as time required for maximal percentage of reactivation at 1 mM by Ellman spectrophotometric method.
Test [21] shares this target. In words: Reactivation of cyclosarin-inhibited human recombinant AChE using acetylthiocholine iodide as substrate assessed as dissociation constant of conjugated enzyme-oxime complex by Ellman spectrophotometric method.
Test [22] concerns the target T1, Cholinesterases; ACHE & BCHE (Homo sapiens). The test is described as follows: Selectivity ratio of Ki for human plasma BChE to Ki for recombinant human AChE.
Test [23] has as its target Acetylcholinesterase (Homo sapiens) (UniProt P22303). In words: Reactivation of VX-inhibited AChE in whole human blood assessed as VX degradation at 0.1 mM after 10 mins by spectrophotometric analysis.
The target in test [24] is Cholinesterase (Homo sapiens) (UniProt P06276). In words: Reactivation of VX-inhibited BChE in whole human blood assessed as VX degradation at 0.1 mM after 10 mins by spectrophotometric analysis.
The target of test [25] is Acetylcholinesterase (Homo sapiens) (UniProt P22303). The test is described as follows: Reactivation of sarin-inhibited AChE in whole human blood assessed as sarin degradation at 0.1 mM after 10 mins by spectrophotometric analysis.
The target in test [26] is Cholinesterase (Homo sapiens) (UniProt P06276). In words: Reactivation of sarin-inhibited BChE in whole human blood assessed as sarin degradation at 0.1 mM after 10 mins by spectrophotometric analysis.
Test [27] concerns the target Acetylcholinesterase (Homo sapiens) (UniProt P22303). In words: Reactivation of cyclosarin-inhibited AChE in whole human blood assessed as cyclosarin degradation at 0.1 mM after 5 mins by spectrophotometric analysis.
Test [28] deals with Cholinesterase (Homo sapiens) (UniProt P06276). The test is described as follows: Reactivation of cyclosarin-inhibited BChE in whole human blood assessed as cyclosarin degradation at 0.1 mM after 5 mins by spectrophotometric analysis.
Test [29] deals with Acetylcholinesterase (Homo sapiens) (UniProt P22303). In words: Reactivation of tabun-inhibited human recombinant AChE using acetylthiocholine iodide as substrate by Ellman spectrophotometric method relative to control.
The target is the same in test [30]. In words: Reactivation of VX-inhibited human recombinant AChE at 200 uM using acetylthiocholine iodide as substrate by Ellman spectrophotometric method relative to control.
Test [31] shares this target. In words: Reactivation of tabun-inhibited human recombinant AChE using acetylthiocholine iodide as substrate assessed as time required for maximal percentage of reactivation by Ellman spectrophotometric method.
For test [32] the target is unchanged. The test is described as follows: Reactivation of VX-inhibited human recombinant AChE using acetylthiocholine iodide as substrate assessed as time required for maximal percentage of reactivation at 200 uM by Ellman spectrophotometric method.

Consider `NC(=O)c1cc[n+](CCCC[n+]2ccc(/C=N/O)cc2)cc1`, for which the Ratio Ki in test [1] was 3.8. Also, the %max in test [2], in test [3], in test [4] and in test [5] was 100% throughout. Further, the K amounted to 0.9 min⁻¹ in test [6]; 12.9 M⁻¹ s⁻¹ in test [7]; 1.2 min⁻¹ in test [8]; 39 M⁻¹ s⁻¹ in test [9]; 0.074 min⁻¹ in test [10]; 11.2 M⁻¹ s⁻¹ in [11]. Moreover, the K in test [12] was 0.07 min⁻¹; in test [13], 0.717 M⁻¹ s⁻¹; in test [15], 1130 µM; in test [17] it was 510 µM; in [19], 110 µM; in test [21], 1740 µM. The TIME was determined as 5 h in [14], 0.5 h in test [16], 4 h in test [18] and 2 h in test [20].
Consider `NC(=O)c1cc[n+](CCC[n+]2cc(Cl)c(/C=N/O)c(Cl)c2)cc1`, for which the Ratio Ki in test [22] amounted to 9.3. Also, the outcome in test [23], in test [24], in test [25], in test [26], in [27] and in test [28] was Active. For the same compound, the %max in [2] is 80%; in test [29], 20%; in [4] it was 100%; in test [30], 100%. The K in [6] was determined as 0.53 min⁻¹; in test [7] it was 128 M⁻¹ s⁻¹; in test [8] it was 0.43 min⁻¹; in test [9] it was 200 M⁻¹ s⁻¹; in test [12], 4.2 min⁻¹; in [13] it was 432 M⁻¹ s⁻¹. The results for the K in [15], in test [17] and in test [21] were 70 µM, 35 µM and 160 µM, respectively. In addition, the TIME worked out at 0.167 h in [14], 24 h in test [31], 0.0167 h in test [18] and 0.167 h in [32].
On to `NC(=O)c1cc[n+](C/C=C/C[n+]2ccc(/C=N/O)cc2)cc1`, for which the Ratio Ki in [1] is 10.1. Further, the %max in [2] turned out to be 100%; in [3], 90%; in [4], 100%; in test [5], 100%. The K in test [6] was 0.5 min⁻¹; in test [7], 25.5 M⁻¹ s⁻¹; in test [8], 1.5 min⁻¹; in test [9], 37.5 M⁻¹ s⁻¹; in test [10], 0.13 min⁻¹; in [11] it was 30 M⁻¹ s⁻¹. The K in test [12] amounted to 0.08 min⁻¹; in test [13], 1.83 M⁻¹ s⁻¹; in test [15], 290 µM; in [17], 650 µM; in test [19], 70 µM; in test [21], 740 µM. Further, the TIME in [14] came to 5 h; in test [16], 0.3 h; in [18] it was 4 h; in test [20], 2 h.
